The values below are quoted from earlier work in article PMC3005221 (Biochemistry, 2010).

This data set addresses Ubp-M BUZ domain (Homo sapiens, UniProt Q9Y5T5). The note with it: read-out: KD for Ubp-M BUZ domain (previously reported); earlier studies.

Turning to ubiquitin, the Kd (in general, the free concentration of one partner at which half of the binding sites on the other are occupied at equilibrium, for simple one-to-one binding) is 6.5 µM.
